## Antibody variant affinities, Ab-95 light chain, assay 2

From the AlphaSeq antibody data of Engelhart et al. 2022 (doi:10.1038/s41597-022-01779-4), copy in the FLAb collection.

Target peptide (SARS-CoV-2 spike, HR2 region): PDVDLGDISGINAS

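The parent was found by panning a naive human phage display library on the peptide. In library AAYL52, one, two or three CDR residues were substituted; doubles and triples were drawn at random. Affinity was read by AlphaSeq, a pooled yeast mating assay with surface-displayed partners. Binding brings cells together so that they mate, and sequencing counts the barcode pairs among the diploids. The ratio of observed to expected reads was calibrated, replicate by replicate, on BCL2-family standards whose Kd was known from biolayer interferometry. Mating was done three times.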

The variants keep the heavy chain, the linker and the frameworks of Ab-95 (scFv order VH, three GGGGS repeats, VL).
VH: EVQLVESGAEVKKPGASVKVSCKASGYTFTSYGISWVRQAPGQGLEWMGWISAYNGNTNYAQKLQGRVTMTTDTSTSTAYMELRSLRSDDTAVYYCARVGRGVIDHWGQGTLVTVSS
VL: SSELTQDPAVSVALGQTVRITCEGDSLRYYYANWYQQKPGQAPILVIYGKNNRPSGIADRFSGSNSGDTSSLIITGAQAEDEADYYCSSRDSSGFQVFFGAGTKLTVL

Variants are written as CDR1, CDR2 and CDR3 of the light chain (limits as in the source). Parent: EGDSLRYYYAN, GKNNRPS, SSRDSSGFQVF.
Numbers give log10(Kd / nM), so 0 is 1 nM and 3 is 1 µM. Smaller is tighter.
Averages over replicates are reported, and they cover detected replicates only.
An entry "ND" has no value in the source: the pair was not observed among the diploids in that replicate. This suggests poor binding but is not conclusive.
The list is sorted by this average, lowest first, undetected variants last.
Background: pairings of library AAYL52 with three empty control strains gave a value in 28% of cases (median 3.91, 5th percentile 2.90). Values in that range, when seen in few replicates, are hard to tell from nonspecific mating.

Variant EGDSLRYHKAN / GSNNRPS / SSRDSSGFQVF gave 1.43, 1.29, 0.77 (mean 1.16).
Variant EGDSLRYGHAN / GKNNRPS / SSDDSSGFQVF gave 1.86, 1.58, 1.49 (mean 1.64).
Variant EGDSLRYVYAN / GKNNRPS / SQRDSSGPQVF gave 1.22, 2.22, 1.81 (mean 1.75).
Variant MGDSLRYYYAN / GKNNRPA / SSRDSSGNQVF gave 2.08, 2.23, 1.53 (mean 1.95).
Variant EGDSLRYMYAN / GKNNRPS / SSEDSSGFQVL gave 2.27, 2.23, 2.19 (mean 2.23).
Variant EGDSLRGYYAN / GKNERPS / SSRDSSGFPVF gave 2.26, 2.68, 2.18 (mean 2.37).
Variant HGDSLRYYYAN / GKNNVPS / SSRDSSGFQVF gave 2.43, 2.29, 2.45 (mean 2.39).
Variant EGDSLRYYYAN / GKNNSPS / SSRDSSGRQVY gave 2.71, 2.43, 2.15 (mean 2.43).
Variant EGDELWHYYAN / GKNNRPS / SSRDSSGFQVF gave 2.28, 2.96, 2.68 (mean 2.64).
Variant ESDSLRSYYAN / GKNNRPS / TSRDSSGFQVF gave 2.83, ND, 2.95 (mean 2.89).
Variant EGSDLRYYYAN / GKNNIPS / SSRDSSGFQVF gave 2.82, 3.27, 2.59 (mean 2.89).
Variant GNDSLRYYYAN / GKNNRGS / SSRDSSGFQVF gave 2.95, 2.99, 2.89 (mean 2.94).
Variant EGDSLRYYYAN / GKNNRPR / SSRDTSGFQVN gave 3.52, ND, ND.
Variant EGKQLRYYYAN / GKNNRPS / HSRDSSGFQVF gave 3.24, 3.82, ND (mean 3.53).
Variant EGDSVKYYYAN / GKNNRPS / SSRDSSGFAVF gave 3.60, ND, ND.
Variant EGDSLRMYKAN / GKNNRPS / SSRESSGFQVF gave 3.17, 4.86, 3.25 (mean 3.76).
Variant LGDSLRYYYAN / QKNNRPS / SSRDSSGFQAF gave 3.79, ND, ND.
Variant EGDSVRYYYAN / GKNNNPS / SSRDSSGFQVF gave 3.82, ND, ND.
Variant EGDSLRYYYNN / GKNNRPS / QSRDSSGFKVF gave 4.43, 4.31, 3.57 (mean 4.10).
Variant EGDSLRYYYAN / GKLNRPS / SSRDSSSFQLF gave 5.16, 3.05, ND (mean 4.10).
Variant ERDSLRYYYAN / GKDNRLS / SSRDSSGFQVF gave ND, ND, 4.19.
Variant EGDSLRKYYAN / CKNNRPS / WSRDSSGFQVF gave 3.95, 5.09, 3.60 (mean 4.21).
Variant EGDPLRYYYAN / GKNNRPS / SSRDSSDFQVS gave 4.27, ND, ND.
Variant EGDSLRVYYAN / GKNNRPS / SSRDSSGFWNF gave 4.28, ND, ND.
Variant EGDSPRYYYAN / GKNNRPS / RSRRSSGFQVF gave 3.50, 5.64, ND (mean 4.57).
Variant EGDSLGYYYAN / GKNNRPS / SSRDSSRFQVG gave 4.06, 5.83, 4.56 (mean 4.82).
Variant EGDSLRYYYAN / KKNQAPS / SSRDSSGFQVF gave 5.73, 4.64, ND (mean 5.19).
Variant EGDSLIYYYAN / GKNNQLS / SSRDSSGFQVF gave ND, ND, ND.
Variant EGDSLFYYYYN / GKQNRPS / SSRDSSGFQVF gave ND, ND, ND.
Variant EGYSLRYYYAN / VKNNRPS / SMRDSSGFQVF gave ND, ND, ND.
Variant EGDSLRYYYAN / GKNNRRS / SSRDSPGFQDF gave ND, ND, ND.